# Measured values published in patent US20070129350A1, “Methods for treatment of diabetes” (published 2007).
# Test system: non-obese diabetic mice
# Assay: Effect on insulin resistance: glucose infusion rate during insulin activity
# Conditions: test compound given before insulin (phenserine approximately 30 minutes prior); glucose infused to maintain steady glucose level; relative to control animals
structure (smiles),measurement,value
CN1CC[C@@]2(C)c3cc(OC(=O)Nc4ccccc4)ccc3N(C)C12 (stereo partly shown),rate of glucose infusion,increase the rate of glucose infusion
